Laboratory results as given in patent US20230042729A1, “PEPTIDE CONSTRUCTS AND COMPOSITIONS” (DIET4LIFE APS, priority 2019, published 2023).

Chains of the proteins cited; added tags and fusions are not shown. Lines headed by an entry give the natural chain unless they say otherwise; changes in a name come on top.
UniProt P28843: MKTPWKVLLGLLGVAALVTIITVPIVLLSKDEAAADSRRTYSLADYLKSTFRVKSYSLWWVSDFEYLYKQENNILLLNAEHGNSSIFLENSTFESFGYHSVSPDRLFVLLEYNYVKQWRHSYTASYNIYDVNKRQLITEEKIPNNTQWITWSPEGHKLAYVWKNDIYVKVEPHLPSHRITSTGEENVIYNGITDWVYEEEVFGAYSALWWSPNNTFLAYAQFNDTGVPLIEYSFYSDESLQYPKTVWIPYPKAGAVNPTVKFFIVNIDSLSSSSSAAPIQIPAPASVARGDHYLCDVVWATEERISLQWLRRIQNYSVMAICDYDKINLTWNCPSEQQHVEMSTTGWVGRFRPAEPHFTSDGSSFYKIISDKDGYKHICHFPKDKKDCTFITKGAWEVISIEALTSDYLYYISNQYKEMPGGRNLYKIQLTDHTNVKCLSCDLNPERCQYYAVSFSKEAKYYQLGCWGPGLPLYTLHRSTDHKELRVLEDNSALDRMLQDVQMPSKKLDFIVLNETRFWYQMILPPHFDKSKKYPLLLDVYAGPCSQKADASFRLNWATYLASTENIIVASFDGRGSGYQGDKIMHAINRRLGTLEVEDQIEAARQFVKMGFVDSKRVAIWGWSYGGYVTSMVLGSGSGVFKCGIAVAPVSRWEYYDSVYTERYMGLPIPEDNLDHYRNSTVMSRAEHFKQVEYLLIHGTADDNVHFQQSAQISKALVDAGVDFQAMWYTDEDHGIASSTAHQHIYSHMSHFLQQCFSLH

Biological target: DPP IV (Mus musculus, UniProt P28843)
Test: biochemical

**Q.** For `N[C@@H](CC(=O)N1CCn2c(nnc2C(F)(F)F)C1)Cc1cc(F)c(F)cc1F` [Sitagliptin], which EC50 is on record?
**A.** ~49.1 nM
